{"sequences": {"note": "Sequences of proteins named here, by UniProt entry; tags and fusion partners are left off.", "UniProt P45973, whole entry": "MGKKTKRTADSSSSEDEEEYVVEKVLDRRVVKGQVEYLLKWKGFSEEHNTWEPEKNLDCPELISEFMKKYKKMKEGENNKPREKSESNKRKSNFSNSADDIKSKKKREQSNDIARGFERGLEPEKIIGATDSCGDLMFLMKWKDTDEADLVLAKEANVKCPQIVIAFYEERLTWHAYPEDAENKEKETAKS"}, "source": "paper PMC3441713", "about": "“Citrullination of Histone H3 Interferes with HP1-Mediated Transcriptional Repression” (PLoS Genetics, 2012)", "key": {"[1]": {"molecular_target": "T1, GST-HP1α (Homo sapiens, UniProt P45973)", "test": "Overlay assay: competition of H3 peptides with cellular sites for GST-HP1α binding", "conditions": "1 µg peptide; fixed permeabilized MCF7 cells"}, "[2]": {"molecular_target": "T1, GST-HP1α", "test": "SPR; GST-HP1α covalently coupled to a CM5 chip (3500, 6500 and 15000 RU), GST reference surface; peptides injected; Biacore 2000, 25°C, PBS; steady-state fit"}, "[3]": {"molecular_target": "T1, GST-HP1α", "test": "Dot blot: binding of recombinant GST-HP1α to spotted H3 peptides", "conditions": "1, 0.2 and 0.04 µg peptide on membrane, anti-GST antibodies"}, "[4]": {"molecular_target": "T1, GST-HP1α", "test": "Surface plasmon resonance of H3 peptides on immobilized GST-HP1α", "assay_type": "binding", "conditions": "SPR, from Kd"}}, "data": [{"substance": "H3cit8K9: peptide ARTKQTARKSTGGKAPRC with cit8 modification (citrulline at 8 (in place of R8))", "values": [{"measurement": "competition with cellular sites for GST-HP1α binding", "setting": "[1]", "result": "failed to compete"}]}, {"substance": "histone H3 peptide … with cit8K9me3", "values": [{"measurement": "Kd", "setting": "[2]", "result": 313, "unit": "µM"}]}, {"substance": "ARTKQTA (cit)(Kme3)STGGKAPRC [H3cit8K9me3]", "values": [{"measurement": "competition with cellular sites for GST-HP1α binding", "setting": "[1]", "result": "did not"}, {"measurement": "binding of GST-HP1α to spotted H3 peptide", "setting": "[3]; listed as H3Cit8K9me3", "result": "does not bind"}, {"measurement": "binding of GST-HP1α to spotted H3 peptide", "setting": "[3]; listed as cit8K9me3", "result": "but not a peptide with a double cit8K9me3 modification"}, {"measurement": "decrease in the affinity of HP1α for H3cit8K9me3 compared to H3R8K9me3", "setting": "[4]", "result": "more than 200 fold"}, {"measurement": "effect of citrullination of H3R8 on HP1α binding compared with its methylation", "setting": "[4]", "result": 10, "unit": "fold"}]}, {"substance": "ARTKQTARKSTGGKAPRC [H3R8K9]", "values": [{"measurement": "competition with cellular sites for GST-HP1α binding", "setting": "[1]", "result": "failed to compete"}]}]}
